Laboratory results published in paper PMC4963535, “Structure-guided development of heterodimer-selective GPCR ligands” (Nature Communications, 2016).

Sequences of proteins named here, by UniProt entry; tags and fusion partners are left off.
UniProt O95665, whole entry: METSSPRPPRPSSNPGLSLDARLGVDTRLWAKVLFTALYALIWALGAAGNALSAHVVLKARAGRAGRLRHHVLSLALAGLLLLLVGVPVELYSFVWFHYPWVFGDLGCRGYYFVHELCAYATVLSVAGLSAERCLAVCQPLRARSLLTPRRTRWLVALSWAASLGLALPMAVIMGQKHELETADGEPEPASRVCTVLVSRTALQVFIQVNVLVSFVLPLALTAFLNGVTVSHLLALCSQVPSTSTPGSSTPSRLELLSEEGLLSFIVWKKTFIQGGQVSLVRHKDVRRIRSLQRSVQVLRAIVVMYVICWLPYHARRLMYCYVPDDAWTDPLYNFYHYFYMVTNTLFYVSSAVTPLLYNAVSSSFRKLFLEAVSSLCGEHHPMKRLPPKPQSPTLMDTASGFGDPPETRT
UniProt P35462, whole entry: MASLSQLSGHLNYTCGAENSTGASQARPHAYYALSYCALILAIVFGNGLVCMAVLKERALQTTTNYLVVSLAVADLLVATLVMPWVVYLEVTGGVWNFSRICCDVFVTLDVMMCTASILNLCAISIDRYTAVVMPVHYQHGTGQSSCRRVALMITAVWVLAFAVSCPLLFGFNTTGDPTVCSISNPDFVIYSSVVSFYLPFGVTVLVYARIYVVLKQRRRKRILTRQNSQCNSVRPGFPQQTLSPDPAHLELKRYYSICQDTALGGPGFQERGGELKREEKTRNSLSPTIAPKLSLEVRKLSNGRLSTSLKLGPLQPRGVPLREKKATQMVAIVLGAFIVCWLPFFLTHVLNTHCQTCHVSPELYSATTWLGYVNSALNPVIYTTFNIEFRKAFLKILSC
UniProt P21917, whole entry: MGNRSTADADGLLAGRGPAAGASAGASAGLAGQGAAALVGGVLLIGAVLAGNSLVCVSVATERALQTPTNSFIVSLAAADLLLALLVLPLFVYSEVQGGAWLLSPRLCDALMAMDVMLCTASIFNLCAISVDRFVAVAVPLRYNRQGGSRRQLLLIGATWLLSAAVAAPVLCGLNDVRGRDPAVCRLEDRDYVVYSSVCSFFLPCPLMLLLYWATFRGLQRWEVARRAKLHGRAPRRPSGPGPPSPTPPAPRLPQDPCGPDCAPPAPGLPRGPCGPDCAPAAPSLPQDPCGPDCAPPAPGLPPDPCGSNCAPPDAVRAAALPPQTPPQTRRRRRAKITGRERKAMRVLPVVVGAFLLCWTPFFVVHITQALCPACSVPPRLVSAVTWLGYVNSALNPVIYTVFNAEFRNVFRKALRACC

Key:
Format in all cases: binding
hNTS2R = hNTS2R (Homo sapiens, UniProt O95665); test: [3H]NT(8-13) displacement, homogenates from transiently transfected HEK 293T cells, human NTS2R; conditions: read-out: Ki hNTS2R, mean ± s.d.
hD3R = hD3R (Homo sapiens, UniProt P35462); test: [3H]spiperone displacement, membranes from CHO cells stably expressing hD3R; conditions: read-out: Ki hD3R, mean ± s.d.
hD4.4R = hD4.4R (Homo sapiens, UniProt P21917); test: [3H]spiperone displacement, membranes from CHO cells stably expressing hD4.4R; conditions: read-out: Ki hD4.4R, mean ± s.d.

Ki (hNTS2R): 4200 nM | Ki (hD3R): 3.4 nM | Ki (hD4.4R): 33 nM
SMILES: COCCNC(=O)c1ccc(-c2ccc(-n3cc(CCCCN4CCN(c5ccccc5OC)CC4)nn3)cc2)cc1
